Assay results published in ChEMBL document CHEMBL3588754, “Parallel Synthesis of Hexahydrodiimidazodiazepines Heterocyclic Peptidomimetics and Their in Vitro and in Vivo Activities at μ (MOR), δ (DOR), and κ (KOR) Opioid Receptors” (J Med Chem, 2015).

Experiments:
[1] = tested on: Mus musculus; assay: Antinociceptive effect in icv dosed C57BL/6 mouse assessed as tail withdrawal latency measured up to 2 hrs by 55 degC Warm water tail withdrawal assay; settings: strain C57BL/6, Tail
[2] = species on record: Mus musculus; assay: Ratio of ED50 for antinociceptive effect in C57BL/6 mouse by 55 degC Warm water tail withdrawal assay to ED50 for analgesic activity in C57BL/6 mouse by acetic acid writhing assay; settings: strain C57BL/6, Tail

Molecule `CN(C(=O)Cc1ccc(Cl)c(Cl)c1)C1CCCCC1N1CCCC1` (configuration not stated) has an ED50 [1] of 8.62 nM and a Ratio ED50 [2] of 3.76.
